In experiment [1] the test system is K^+ currents in cultured astrocytes. Put plainly: Whole-cell patch clamp of K+ currents (ramp −150 to +50 mV) in cultured astrocytes. The class given is cell-based, mouse (C57BL/6). The protocol: Primary cortical astrocytes were prepared from one day-old male and female C57BL/6 mouse pups culture astrocytes, P1 C57BL/6 J mouse pups. The cerebral cortex was dissected free of adherent meninges, minced and dissociated into single-cell suspension by trituration through a pipette. All experimental procedures described were performed in accordance with the guidelines of Korea University (Seoul, Korea). Dissociated cells were plated onto either 12 mm glass coverslips or six-well plates coated with 0.1 mg/mL Poly-D-Lysine (PDL). Cells were grown in Dulbecco’s modified Eagle’s medium (DMEM, ThermoFisher, Waltham MA, USA) supplemented with 10% heat-inactivated fetal bovine serum, 10% heat-inactivated horse serum, and penicillin–streptomycin. Cultures were maintained at 37 °C in a humidified 5% CO2 incubator. On the third day of culture, cells were washed by repeated pipetting and the media was replaced to remove debris and other floating cells. On the next day (fourth day of culture), the cells were replaced onto glass coverslips (1 × 104 per coverslip) coated with 0.1 mg/mL PDL. […]
Cultured astrocytes were plated onto coverslips for electrophysiological experiments. […] Whole-cell currents were recorded using a patch clamp amplifier (Axopatch 700B, Axon Instruments, Union City, CA, USA). Current–voltage relations were measured by applying ramped pulses (from −150 mV to +50 mV over 1000-ms) from a holding potential of −60 mV. […] Currents were analyzed with Clampfit software (Axon Instruments, Union City, CA, USA). […] Whole-cell currents were recorded after 2 min when spadin-contained bath solutions were exchanged. […]
All data are presented as means ± standard error of the mean (s.e.m). The significance of data for comparison was assessed by Student’s t-test (paired t-test) or one-way ANOVA followed by Turkey’s post hoc test, and significance levels are given as: n.s: not significant, * p < 0.05, ** p < 0.01, *** p < 0.001, and **** p < 0.0001. […]
A general note: In patch-clamp work, channel activity is measured electrically.

Experiment [2] relates to astrocytic passive conductance in mouse hippocampal slices. In words: Whole-cell patch clamp of astrocytic passive conductance in hippocampal slices. The class given is cell-based, mouse (C57BL/6). The protocol:
Lentiviruses were injected into hippocampal CA1 region (AP: 0.17, ML: 0.17, DV: 0.19) of 7–8 week-old wild-type C57BL/6 mice. The virus-infected mouse brain slices (350 μm) containing the hippocampus were […]. Individual hippocampal slices were transferred to a recording chamber, which was constantly perfused with artificial cerebrospinal fluid (ACSF) recording solution containing (in mM) 130 NaCl, 24 NaHCO3, 3.5 KCl, 1.25 NaH2PO4, 1.5 CaCl2, 1.5 MgCl2, and 10 glucose saturated with 95% O2–5% CO2 at pH 7.4. Brain slices were co-loaded with SR-101 (Sigma Aldrich, St. Louis, MO, USA; 1 mM) dye to identify the location of astrocytes in the CA1 region. The slices were recovered at room temperature for at least 1 h before SR101 incubation and electrophysiological recording. […] Whole-cell patch recordings were performed on hippocampal astrocytes with a voltage-clamp configuration using an Axopatch 700B (Axon Instruments, Union City, CA, USA). All data are presented as means ± standard error of the mean (s.e.m). The significance of data for comparison was assessed by Student’s t-test (paired t-test) or one-way ANOVA followed by Turkey’s post hoc test, and significance levels are given as: n.s: not significant, * p < 0.05, ** p < 0.01, *** p < 0.001, and **** p < 0.0001. To obtain the IC50 value for dose-dependent inhibition, concentration–response data were fitted with the Hill equation. Prism9.0 software (GraphPad Software, San Diego, CA, USA) was used for carrying out the statistical analysis.

The test system of the next experiment is TREK-1. To be noted: cited from earlier work. The text has this:
It is well known that TREK-1 activity is modulated by multiple signals such as mechanostretching, heat, pH changes, polyunsaturated fatty acids, and Gq or Gs-induced phosphorylation. […] Recently, spadin, a ...

Where [3] appears, read: hippocampal slices, 10 μM spadin.

Usually IC50 stands for the midpoint of a concentration-inhibition curve.

Take `CC[C@H](C)[C@H](NC(=O)[C@@H]1CCCN1C(=O)CNC(=O)[C@H](CO)NC(=O)[C@H](Cc1c[nH]c2ccccc12)NC(=O)[C@H](CCCNC(=N)N)NC(=O)[C@@H]1CCCN1C(=O)[C@H](CC(C)C)NC(=O)[C@@H]1CCCN1C(=O)[C@H](C)NC(=O)[C@@H](N)Cc1ccc(O)cc1)C(=O)NCC(=O)N[C@H](C(=O)N[C@@H](CO)C(=O)N[C@@H](Cc1c[nH]c2ccccc12)C(=O)NCC(=O)N[C@@H](CC(C)C)C(=O)N[C@@H](CCCNC(=N)N)C(=O)O)C(C)C` [spadin]: the “outward and inward currents of astrocytes” value in experiment [1] (cultured astrocytes, series of spadin concentrations, +50 mV and −150 mV) was “gradually reduced as spadin concentration increased”. The “reversal membrane potential (RMP) after treatment” value in experiment [1] (cultured astrocytes, before treatment –78.4 ± 1.7 mV, concentration dependent, mean ± s.e.m.) is listed as −69.9 ± 2.3 mV. The IC50 was 54.6 nM in experiment [1] (cultured mouse cortical astrocytes, outward currents at +50 mV, ramp from −150 to +50 mV, Hill fit, bath pH 7.4, 20–22 °C, recorded 2 min after solution exchange, read-out: IC50 on astrocytic conductance) and 70.7 nM with TREK-1 (dose-response of spadin on TREK-1). Besides, the “residual conductance with spadin” value in experiment [2] (10 µM spadin, Figures 6 and 7) was about 30%. Further, the “I–V relationship with spadin” value in experiment [2] (setting [3]) is “maintained linearity, and the slope became much gentler”. In addition, the astrocytic passive conductance entry in experiment [2] (setting [3]) is on record as “very substantial reduction in astrocytic passive conductance”. Besides, the “reversal potential (Vrev) after treatment” value in experiment [2] (hippocampal slices, 10 μM spadin, control −81.1 ± 1.05 mV, mean ± s.e.m.) was −76.6 ± 0.82 mV. Moreover, the “outward current remaining, of control” value in experiment [2] (hippocampal slices, +40 mV, 10 μM spadin, ACSF pH 7.4) was 30%. For the same compound, in experiment [2] (hippocampal slices, −160 mV, 10 μM spadin, ACSF pH 7.4), the “inward current remaining, of control” value is 40%. Also, the “inhibition of TREK-1 current” value with TREK-1 (100 nM spadin, TREK-1-transfected COS-7 cells, current stimulated by arachidonic acid) is listed as “about 60%”.

(Values after article PMC7765948, “Spadin Modulates Astrocytic Passive Conductance via Inhibition of TWIK-1/TREK-1 Heterodimeric Channels” (International Journal of Molecular Sciences, 2020).)
